Measurements reported in publication PMC10539439 (Pharmacological Reports, 2023).

Columns and labels:
[1] = Distribution in brain after ip administration; settings: rat brain, Guanabenz 0.3 mg/kg, 4-OH-Guanabenz 0.4 mg/kg
TAAR1 = molecular target: T1, TAAR1 (Homo sapiens, UniProt Q96RJ0); experiment: Intrinsic activity, Hit Hunter cAMP assay; format: cell-based; settings: Agonist, Conc 0.228624
T1 sequence (Q96RJ0 1-339): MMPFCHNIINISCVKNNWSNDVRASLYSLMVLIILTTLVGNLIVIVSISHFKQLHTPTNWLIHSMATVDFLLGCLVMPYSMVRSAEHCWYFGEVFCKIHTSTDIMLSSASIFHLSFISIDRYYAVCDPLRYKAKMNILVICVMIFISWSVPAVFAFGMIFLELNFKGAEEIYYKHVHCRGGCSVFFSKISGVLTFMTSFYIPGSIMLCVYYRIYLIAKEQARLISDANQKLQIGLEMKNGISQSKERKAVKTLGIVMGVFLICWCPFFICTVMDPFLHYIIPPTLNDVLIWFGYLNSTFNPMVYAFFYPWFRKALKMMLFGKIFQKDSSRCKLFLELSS

Compound	AUC0→t [1]	Raw Value (TAAR1)
N=C(N)N/N=C/c1c(Cl)cccc1Cl [Guanabenz]	25,179 ng ⋅ min/g	
NCCc1ccc(O)cc1 [p-Tyramine]		1840
